Results on 51 compounds are retold here after PubChem BioAssay AID720711 (National Center for Advancing Translational Sciences (NCATS), 2013).

Sequences of proteins named here, by UniProt entry; tags and fusion partners are left off. A change or cut given only in a name is not applied to a line headed by its entry.
UniProt Q8WZA2: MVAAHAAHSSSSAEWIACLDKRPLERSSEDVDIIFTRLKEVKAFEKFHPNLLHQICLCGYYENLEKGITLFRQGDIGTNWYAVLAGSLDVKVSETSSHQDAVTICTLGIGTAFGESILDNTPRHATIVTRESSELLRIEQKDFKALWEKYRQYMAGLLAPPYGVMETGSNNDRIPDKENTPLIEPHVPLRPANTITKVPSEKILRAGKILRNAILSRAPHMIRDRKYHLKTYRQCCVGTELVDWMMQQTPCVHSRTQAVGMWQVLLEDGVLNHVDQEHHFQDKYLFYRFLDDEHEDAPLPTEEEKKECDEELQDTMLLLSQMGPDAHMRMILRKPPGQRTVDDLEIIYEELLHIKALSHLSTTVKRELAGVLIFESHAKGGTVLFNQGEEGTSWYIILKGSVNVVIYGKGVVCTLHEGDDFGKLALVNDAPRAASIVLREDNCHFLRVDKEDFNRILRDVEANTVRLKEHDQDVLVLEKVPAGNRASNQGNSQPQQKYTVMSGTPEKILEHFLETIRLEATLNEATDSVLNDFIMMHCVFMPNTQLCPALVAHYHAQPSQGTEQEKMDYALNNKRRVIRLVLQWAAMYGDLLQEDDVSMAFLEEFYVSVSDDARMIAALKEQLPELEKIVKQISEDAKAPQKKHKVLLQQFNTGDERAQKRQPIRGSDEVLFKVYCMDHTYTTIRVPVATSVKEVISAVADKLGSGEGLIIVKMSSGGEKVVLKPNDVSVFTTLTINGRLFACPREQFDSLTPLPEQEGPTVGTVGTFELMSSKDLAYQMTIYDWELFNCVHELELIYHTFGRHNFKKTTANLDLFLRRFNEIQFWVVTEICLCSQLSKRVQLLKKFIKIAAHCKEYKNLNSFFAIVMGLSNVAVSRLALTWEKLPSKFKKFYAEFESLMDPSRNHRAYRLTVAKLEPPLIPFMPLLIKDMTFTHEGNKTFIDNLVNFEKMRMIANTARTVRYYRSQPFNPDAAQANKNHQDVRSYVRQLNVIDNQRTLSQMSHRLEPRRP

Only a part is listed here, and it is no random draw. Activity calls are given as the source filed them. Calls follow the shape of the dose curve; as a rule, active = well fitted activation curve with a large enough effect; inconclusive = small, poorly fitted or top-dose-only effect; inactive = no such curve, though single readings can be large or run the other way.

The target of this test is Rap guanine nucleotide exchange factor 4 (Homo sapiens) (UniProt Q8WZA2). Briefly: qHTS for Agonist of cAMP-regulated guanine nucleotide exchange factor 4 (EPAC2): primary screen. Also: nearly all actives have a fitted effect of over 50% in size. Particulars: biochemical qHTS, 100% = 6.5 mM cAMP response; at 154 µM (top of the series). The source says:
In multi-cellular eukaryotic organisms, the effects of cAMP are transduced by two ubiquitously-expressed intracellular cAMP receptors, the classic protein kinase A/cAMP-dependent protein kinase (PKA/cAPK) and the more recently discovered exchange protein directly activated by cAMP/cAMP-regulated guanine nucleotide exchange factor (EPAC/cAMP-GEF). Both PKA and EPAC are ubiquitously expressed in all tissues, and an increase in intracellular cAMP levels will lead to the activation of both PKA and EPAC. Therefore, careful dissections of the individual role and relative contribution of EPAC and PKA within the overall cAMP signaling in various model systems are critical for further elucidating the mechanism of cAMP signaling. To date no EPAC-specific antagonists and agonist, as well as isoform-specific agonists have been reported, and developing EPAC-specific pharmacological probes to determine the physiological functions that EPAC play in the overall cAMP-mediated signaling remains a major challenge within the research field. Furthermore, identified regulators of EPAC may lead to new mechanism-based therapeutic strategies specifically targeting the EPAC / cAMP-signaling components as EPAC has been implicated to play important roles in major human pathological conditions such as diabetes, heart disease, and cancer.
This qHTS will be used to screen the Molecular Libraries Small Molecule Repository (MLSMR) as a concentration-titration series using the NCGC unique quantitative screening (qHTS) platform to find activators for EPAC2. In addition, this assay will also be used as a counterscreen for the EPAC1 qHTS. This fluorescent based assay is developed and validated for EPAC2 that measures exchange using EPAC effector Rap1 complex with BODIPY-GDP, a GDP analog with a tethered fluorophores. Activators are identified by monitoring the change in fluorescence signal as the exchanged free BODIPY-GDP has a reduced fluorescence compared to Rap1-bound BODIPY-GDP. […] in signal (activation) is the desired outcome for the EPAC2 agonist while no activity in this assay is desired for the EPAC1 agonist counterscreen.
[1] de Rooij, J., Zwartkruis, F. J., Verheijen, M. H., Cool, R. H., Nijman, S. M., Wittinghofer, A., and Bos, J.L. (1998) Nature 396, 474-477
[2] Kawasaki, H., Springett, G. M., Mochizuki, N., Toki, S., Nakaya, M., Matsuda, M., Housman, D. E., and Graybiel, A. M. (1998) Science 282, 2275-2279
NIH Chemical Genomics Center [NCGC]
NIH Molecular Libraries Probe Centers Network [MLPCN]
Assay Submitter (PI): Xiaodong Cheng, The University of Texas, Medical Branch
Briefly, three uL of reagents (100 nM EPAC2, 250 nM RAP1B-BODIPY-GDP, 50 uM GDP) were dispensed into a 1536-well Greiner black solid-bottom medium binding assay plate. Controls and test compounds (23 nL) were transferred to the plate via a Kalypsys pin tool equipped with a 1536-pin array. The plates were centrifuged at 1,000 rpm for 15 seconds followed by 5 minute incubation at room temperature. The assay plates were read at 5 minute intervals for 30 minutes in the ViewLux plate reader using 480nm excitation and 540nm emission filters. The results were normalized to the agonist positive control of 6.5 mM cAMP.
For the compound `CC(=O)Nc1ccc([As](=O)(O)O)c(O)c1`, the activation was inactive: 1.44%.
In the case of `CCOc1ccc(C2=NCC(CBr)S2)cc1` (stereo unspecified) it was inactive: 4.1%; in that of `O=P1(Nc2nc3ccc(Cl)cc3s2)COc2ccccc2O1` (stereo unspecified), inactive: 0.144%; in that of `CCc1cc(O)c([N+](=O)[O-])c(C)c1[N+](=O)[O-]`, inactive: 4.47%.
As to `CC(C)(C)C(=O)NC(Sc1ccccc1)C(Cl)(Cl)Cl` (stereo unspecified), the activation is inactive: 4.54%.
On to `Cc1ccc(OP(=O)(Nc2ccccn2)Oc2ccc(C)cc2)cc1`, for which the activation is inactive: 13.2%.
On to `CC(=O)NC(SC(=S)N(CC(C)C)CC(C)C)C(Cl)(Cl)Cl` (stereo unspecified), for which the activation is inactive: -6.24%.
For the compound `COC(=O)c1cc2c(s1)N=C(c1ccccc1)N(C)P2(=O)N1CCOCC1` (stereo unspecified), the activation is inactive: 4.92%.
With `CCC(=O)N1C2C3N(C(=O)CC)C1C1N(C(=O)CC)C(C(N1C(=O)CC)N3C(=O)CC)N2C(=O)CC`, the activation was inactive: 1.85%.
In the case of `O=C(OC1CN2CCC1CC2)c1ccccc1` (stereo unspecified) it was inactive: 6.4%; in that of `CN(C)C(=O)Oc1noc2ccccc12`, inactive: 0.0586%.
`O=c1c2cc([N+](=O)[O-])ccc2[nH]c2c([N+](=O)[O-])cc([N+](=O)[O-])cc12`: the activation was inactive: 2.5%.
In the case of `Cc1ccccc1OP(=O)(Nc1ccccn1)Oc1ccccc1C`, the activation was inactive: 7.12%.
To `CC(NC(=O)COC(=O)C(O)(c1ccccc1)c1ccccc1)c1ccccc1` (stereo unspecified) belongs inactive: 0.395%; to `O=C(NC1CCS(=O)(=O)C1)NP(=S)(Oc1ccccc1)Oc1ccccc1` (stereo unspecified), inactive: 1.11%; to `CCNC(=S)/N=C(\N)N[N+](=O)[O-]`, inactive: 6.64%.
To `Cc1ccc(NP(=O)(Oc2cccc(C)c2)Oc2cccc(C)c2)nc1` belongs inactive: -4.14%; to `c1ccc(-c2nn[nH]n2)c(-c2nn[nH]n2)c1`, inactive: 4.98%.
As to `O=P1(N(CCCl)CCCl)OCCC2CCCCN21` (stereo unspecified), the activation was inactive: 0.769%.
`O=[N+]([O-])c1ncn(CCn2cnc([N+](=O)[O-])n2)n1`: the activation is inactive: 1.16%.
For the compound `CC(=O)NC(SC(=S)N(C)C)C(Cl)(Cl)Cl` (stereo unspecified), the activation is inactive: 4.84%.
To `O=[N+]([O-])c1ccc(O)c(/C=N/Nc2ccc([N+](=O)[O-])cc2[N+](=O)[O-])c1` belongs inactive: 3.5%.
For the compound `O=[As](O)(c1ccccc1)c1ccc(O)cc1`, the activation was inactive: 1.51%.
To `Nc1ccc([As](=O)(O)c2ccc([N+](=O)[O-])cc2)cc1` belongs inactive: 4.03%; to `C(Cc1nn[nH]n1)Cc1nn[nH]n1`, inactive: 16.2%; to `O=C(OC1CN2CCC1CC2)c1cccc(Cl)c1` (stereo unspecified), inactive: -1.84%.
Regarding `Nc1ccc(CCCCOc2ccccc2)cc1`, the activation is inactive: 10.1%.
To `COc1ccc(N)c([N+](=O)[O-])c1[N+](=O)[O-]` belongs inactive: -1%; to `CN(C)C1(CNC(=O)c2ccc(Cl)c(S(N)(=O)=O)c2)CCCCC1`, inactive: 0.216%; to `O=P(Nc1ccccn1)(c1ccc(Br)cc1)c1ccc(Br)cc1`, inactive: -3.6%.
As to `C[C@H]1OP(=O)(Oc2ccccc2)[C@H](O)[C@H](O)[C@H]1N=[N+]=[N-]` (stereo partly specified), the activation is inactive: 4.34%.
`O=P(Nc1nc2ccccc2s1)(c1ccccc1)c1ccccc1`: the activation is inactive: -6.34%.
For `CC(C)C(=O)NC(Sc1ccccc1)C(Cl)(Cl)Cl` (stereo unspecified), the activation is inactive: 4.09%.
Take `c1nnnn1CCn1cnnn1`: the activation was inactive: -0.946%.
With `COc1ccccc1CNC(=O)COC(=O)C(O)(c1ccccc1)c1ccccc1`, the activation was inactive: -2.28%.
`CC1(CBr)Cn2c(nc3ccccc3c2=O)S1` (stereo unspecified): the activation was inactive: -6.22%.
As to `CN(C(=O)Cc1ccc(Cl)c(Cl)c1)[C@@H]1CCCC[C@H]1N1CCCC1`, the activation is inactive: -3.89%.
With `CC(C)/C=N\N=C(\N)N[N+](=O)[O-]`, the activation is inactive: 5.85%.
In the case of `CN(CCCl)Cc1cc(Cl)c(NC2=NCCN2)c(Cl)c1` it was inactive: 8.71%; in that of `CCOP(=O)(Nc1ccc(C)cn1)OCC`, inactive: -1.75%; in that of `CCOP(=O)(NC(=NC(C)c1ccccc1)NC(C)c1ccccc1)OCC` (stereo unspecified), inactive: -3.07%.
In the case of `CCC1=CC2Cc3nc4ccc(Cl)cc4c(N)c3C(C1)C2` (stereo unspecified) it was inactive: 8.67%; in that of `O=P1(Nc2ccccn2)COc2ccccc2OC1`, inactive: -1.38%; in that of `CC(C)(C)C(=O)NC(Sc1ncccn1)C(Cl)(Cl)Cl` (stereo unspecified), inactive: 1.81%.
As for `Clc1n[nH]nc1-c1nn[nH][15n]1`, the activation was inactive: -0.297%.
To `O=P1(N(CCCl)CCCl)NCCC(C(F)(F)F)O1` (stereo unspecified) belongs inactive: 2.98%; to `O=P1(Nc2ncccn2)COc2ccccc2OC1`, inactive: -1.24%; to `Cc1ccc(S(=O)(=O)N(CCCN)CCCc2c(C)nc(N)[nH]c2=O)cc1`, inactive: 7.37%.
To `NS(=O)(=O)c1cccc(NC(=O)COC(=O)C(O)(c2ccccc2)c2ccccc2)c1` belongs inactive: 3%.
As to `O=P1(Nc2ccc(Br)cn2)COc2ccccc2OC1`, the activation is inactive: 5.04%.
In the case of `O=[As](O)(c1cccs1)c1cccs1` it was inactive: -4.43%.
